Broadly, the Kd is a measure of binding affinity in units of concentration. A lower Kd goes with a tighter complex.

Chains of the proteins cited; added tags and fusions are not shown.
UniProt Q99873, whole entry: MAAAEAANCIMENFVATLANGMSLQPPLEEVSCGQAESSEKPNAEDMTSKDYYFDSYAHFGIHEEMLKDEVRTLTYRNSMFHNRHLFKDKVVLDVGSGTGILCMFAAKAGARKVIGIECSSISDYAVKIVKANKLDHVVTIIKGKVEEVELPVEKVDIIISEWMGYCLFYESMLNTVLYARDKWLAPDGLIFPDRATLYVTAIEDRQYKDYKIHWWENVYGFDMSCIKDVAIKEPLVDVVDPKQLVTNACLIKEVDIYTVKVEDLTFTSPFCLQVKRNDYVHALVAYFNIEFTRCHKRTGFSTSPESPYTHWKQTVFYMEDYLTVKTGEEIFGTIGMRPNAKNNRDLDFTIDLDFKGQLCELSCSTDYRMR
UniProt Q9JIF0, whole entry: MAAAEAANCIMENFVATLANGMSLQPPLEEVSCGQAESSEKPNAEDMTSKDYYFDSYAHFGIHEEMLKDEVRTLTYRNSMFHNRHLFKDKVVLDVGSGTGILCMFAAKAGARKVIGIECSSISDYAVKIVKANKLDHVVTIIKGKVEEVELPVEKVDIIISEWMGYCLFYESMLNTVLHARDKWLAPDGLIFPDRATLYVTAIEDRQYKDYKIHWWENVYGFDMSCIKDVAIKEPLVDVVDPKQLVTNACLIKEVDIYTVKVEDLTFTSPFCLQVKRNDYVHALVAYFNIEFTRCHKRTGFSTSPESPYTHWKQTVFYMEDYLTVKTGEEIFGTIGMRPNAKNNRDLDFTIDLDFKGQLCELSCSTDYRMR

Assay [1] concerns the target PRMT1 (Homo sapiens, UniProt Q99873). As to the kind of experiment: biochemical.
Assay [2] concerns the target Prmt1 (Mus musculus, UniProt Q9JIF0). Description: biochemical.

Consider `C[S+](CC[C@H](N)C(=O)[O-])C[C@H]1O[C@@H](n2cnc3c(N)ncnc32)[C@H](O)[C@@H]1O` (some centres unmarked) [SAM], for which the Kd was approximately 26 µM in assay [1] and approximately 36 µM in assay [2].

Values taken from paper PMC11192564 (Cell metabolism, 2023).
